Earlier results in US8449914B2, “Controlled release carvedilol compositions” (Egalet Ltd., priority 2002, dated 2013).

Details: in vivo

| Structure (SMILES) | t½ [h] |
| --- | --- |
| COc1ccccc1OCCNC[C@@H](O)COc1cccc2[nH]c3ccccc3c12 [R(+)-carvedilol] | 9.6 |
| COc1ccccc1OCCNC[C@H](O)COc1cccc2[nH]c3ccccc3c12 [S(−)-carvedilol] | 22.1 |
